Membrane permeability of cyclic peptides

Values of Townsend et al. 2020, doi:10.26434/chemrxiv.13335941.v1, as listed in CycPeptMPDB.

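The data file gives no further conditions (lipid, pH, time, direction or concentration), and values from different papers need not be comparable. The list need not hold all peptides of the study. Peptides that the database sets to -10, its floor, are left out.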

PAMPA is the parallel artificial membrane permeability assay, which has no cells and reads passive diffusion.
Permeability is in 10^-6 cm/s, converted from the database's log10 values; higher is more permeable.

| structure (SMILES) | PAMPA (10^-6 cm/s) |
|---|---|
| CC(C)C[C@H]1NC(=O)[C@H](CC(C)C)N(C)C(=O)[C@@H](C)NC(=O)[C@@H]2CCCN2C(=O)[C@H](Cc2ccccc2)NC(=O)[C@H](CC(C)C)N(C)C(=O)[C@H]2CCCN2C1=O | 2.2 |
| CC(C)C[C@@H]1C(=O)N(Cc2ccccc2)CC(=O)N2CCC[C@H]2C(=O)N(C)[C@H](CC(C)C)C(=O)N[C@@H](Cc2ccccc2)C(=O)N2CCC[C@@H]2C(=O)N[C@@H](C)C(=O)N1C | 1.5 |
| CC(C)C[C@@H]1NC(=O)[C@@H](CC(C)C)N(C)C(=O)[C@@H](C)NC(=O)[C@H](Cc2ccccc2)NC(=O)[C@H](CC(C)C)N(C)C(=O)[C@@H]2CCCN2C1=O | 5 |
| CC(C)C[C@@H]1NC(=O)[C@@H](C)NC(=O)[C@H](Cc2ccccc2)NC(=O)CN(Cc2ccccc2)C(=O)[C@H]2CCCN2C(=O)[C@H](CC(C)C)NC1=O | 2.1 |
| CC(C)C[C@@H]1C(=O)N[C@@H](Cc2ccccc2)C(=O)N(C)[C@@H](C)C(=O)N[C@H](CC(C)C)C(=O)N[C@@H](Cc2ccccc2)CC(=O)N2CCC[C@@H]2C(=O)N1C | 3 |
| CC(C)C[C@@H]1C(=O)N[C@@H](Cc2ccccc2)C(=O)N[C@H](C)C(=O)N(C)[C@H](CC(C)C)C(=O)N(Cc2ccccc2)CC(=O)N2CCC[C@@H]2C(=O)N1C | 2 |
| CCCN1CC(=O)N(C)[C@@H](CC(C)C)C(=O)N[C@H](CC(C)C)C(=O)N2CCC[C@@H]2C(=O)N(C)[C@H](CC(C)C)C(=O)N[C@@H](Cc2ccccc2)C1=O | 6.9 |
| CCCN1CC(=O)N(C)[C@H](CC(C)C)C(=O)N(Cc2ccccc2)CC(=O)N2CCC[C@@H]2C(=O)N(C)[C@@H](CC(C)C)C(=O)N[C@@H](Cc2ccccc2)C(=O)N2CCC[C@H]2C1=O | 1 |
| CC(C)C[C@@H]1NC(=O)[C@@H](C)N(C)C(=O)[C@H](Cc2ccccc2)NC(=O)[C@@H](CC(C)C)N(C)C(=O)[C@H]2CCCN2C(=O)[C@@H](CC(C)C)NC1=O | 3 |
| CCCN1CC(=O)N(C)[C@H](CC(C)C)C(=O)N[C@@H](CC(C)C)C(=O)N2CCC[C@@H]2C(=O)N[C@H](CC(C)C)C(=O)N[C@@H](Cc2ccccc2)C1=O | 5 |
| CC(C)C[C@@H]1C(=O)N[C@@H](Cc2ccccc2)C(=O)N2CCC[C@H]2C(=O)N(C)[C@H](C)C(=O)N[C@H](CC(C)C)C(=O)N[C@@H](Cc2ccccc2)CC(=O)N2CCC[C@@H]2C(=O)N1C | 0.66 |
| CC(C)C[C@H]1C(=O)N(C)[C@@H](CC(C)C)C(=O)N2CCC[C@H]2C(=O)N(Cc2ccccc2)CC(=O)N[C@@H](Cc2ccccc2)C(=O)N2CCC[C@@H]2C(=O)N(C)[C@@H](C)C(=O)N1C | 9.3 |
| CC(C)C[C@@H]1C(=O)N2CCC[C@H]2C(=O)N[C@H](CC(C)C)C(=O)N[C@@H](Cc2ccccc2)C(=O)N2CCC[C@H]2C(=O)N(C)[C@H](C)C(=O)N[C@H](CC(C)C)C(=O)N1C | 2.1 |

Again, the 2 entries with the lowest PAMPA:

| structure (SMILES) | PAMPA (10^-6 cm/s) |
|---|---|
| CC(C)C[C@@H]1C(=O)N[C@@H](Cc2ccccc2)C(=O)N2CCC[C@H]2C(=O)N(C)[C@H](C)C(=O)N[C@H](CC(C)C)C(=O)N[C@@H](Cc2ccccc2)CC(=O)N2CCC[C@@H]2C(=O)N1C | 0.66 |
| CCCN1CC(=O)N(C)[C@H](CC(C)C)C(=O)N(Cc2ccccc2)CC(=O)N2CCC[C@@H]2C(=O)N(C)[C@@H](CC(C)C)C(=O)N[C@@H](Cc2ccccc2)C(=O)N2CCC[C@H]2C1=O | 1 |